Experimental data as given in patent publication US8680091B2, “6-arylalkylamino-2,3,4,5-tetrahydro-1H-benzo[d]azepines as 5-HT2C receptor agonists” (Eli Lilly and Company, priority 2005, dated 2014).

Chains of the proteins cited; added tags and fusions are not shown.
UniProt P28223, whole entry: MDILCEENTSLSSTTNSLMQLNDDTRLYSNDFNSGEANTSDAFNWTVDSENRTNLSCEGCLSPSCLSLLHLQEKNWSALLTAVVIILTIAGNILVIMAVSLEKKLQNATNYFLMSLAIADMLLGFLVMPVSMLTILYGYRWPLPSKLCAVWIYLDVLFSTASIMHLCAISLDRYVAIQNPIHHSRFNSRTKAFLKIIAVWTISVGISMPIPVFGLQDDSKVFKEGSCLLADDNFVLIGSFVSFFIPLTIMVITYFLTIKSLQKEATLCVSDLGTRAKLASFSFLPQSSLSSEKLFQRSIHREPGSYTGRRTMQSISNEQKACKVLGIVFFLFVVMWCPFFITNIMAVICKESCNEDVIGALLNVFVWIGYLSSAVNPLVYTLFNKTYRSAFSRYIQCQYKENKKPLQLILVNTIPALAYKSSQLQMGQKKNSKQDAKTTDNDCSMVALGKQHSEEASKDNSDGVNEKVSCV
UniProt P41595, whole entry: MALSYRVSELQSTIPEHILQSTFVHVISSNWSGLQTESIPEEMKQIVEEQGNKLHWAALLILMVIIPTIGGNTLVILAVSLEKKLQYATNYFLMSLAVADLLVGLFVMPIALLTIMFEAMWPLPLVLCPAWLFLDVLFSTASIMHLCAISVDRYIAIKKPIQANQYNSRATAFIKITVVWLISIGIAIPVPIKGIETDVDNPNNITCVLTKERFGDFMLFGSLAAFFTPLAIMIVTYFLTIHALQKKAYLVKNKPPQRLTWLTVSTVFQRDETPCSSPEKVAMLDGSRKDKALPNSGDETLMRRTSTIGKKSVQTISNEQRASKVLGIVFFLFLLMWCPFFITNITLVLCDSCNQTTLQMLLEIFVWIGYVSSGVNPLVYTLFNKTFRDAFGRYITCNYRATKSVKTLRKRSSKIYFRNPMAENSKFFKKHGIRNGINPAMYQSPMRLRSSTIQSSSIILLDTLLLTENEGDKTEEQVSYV

Columns and labels:
[1] = biological target: human 5-HT2A receptor (Homo sapiens, UniProt P28223); settings: normalized AUC at 5-HT2C / normalized AUC at 5-HT2A
[2] = biological target: human 5-HT2B receptor (Homo sapiens, UniProt P41595); settings: normalized AUC at 5-HT2C / normalized AUC at 5-HT2B

Clc1cccc(N2CCNCC2)c1 [mCPP, meta-chlorophenylpiperazine]
AUC 2C/2A Selectivity Ratio [1]: 2.1
AUC 2C/2B Selectivity Ratio [2]: 2.1
